The values that follow are results of earlier work, collected in patent publication US9289507B2, “Carriers for improved drug delivery” (Extend Biosciences, Inc., priority 2012, dated 2016).

The conditions of this data set: active vitamin D, bound to DBP; cited from earlier work.

In the case of vitamin D, the “time kept in circulation by DBP, on average” value is on record as 30 days.
